# Source: PubChem BioAssay AID1259400 (National Center for Advancing Translational Sciences (NCATS), 2018)
# The chains behind the UniProt entries cited, without tags or fusion partners.
# UniProt Q9HBX9, whole entry: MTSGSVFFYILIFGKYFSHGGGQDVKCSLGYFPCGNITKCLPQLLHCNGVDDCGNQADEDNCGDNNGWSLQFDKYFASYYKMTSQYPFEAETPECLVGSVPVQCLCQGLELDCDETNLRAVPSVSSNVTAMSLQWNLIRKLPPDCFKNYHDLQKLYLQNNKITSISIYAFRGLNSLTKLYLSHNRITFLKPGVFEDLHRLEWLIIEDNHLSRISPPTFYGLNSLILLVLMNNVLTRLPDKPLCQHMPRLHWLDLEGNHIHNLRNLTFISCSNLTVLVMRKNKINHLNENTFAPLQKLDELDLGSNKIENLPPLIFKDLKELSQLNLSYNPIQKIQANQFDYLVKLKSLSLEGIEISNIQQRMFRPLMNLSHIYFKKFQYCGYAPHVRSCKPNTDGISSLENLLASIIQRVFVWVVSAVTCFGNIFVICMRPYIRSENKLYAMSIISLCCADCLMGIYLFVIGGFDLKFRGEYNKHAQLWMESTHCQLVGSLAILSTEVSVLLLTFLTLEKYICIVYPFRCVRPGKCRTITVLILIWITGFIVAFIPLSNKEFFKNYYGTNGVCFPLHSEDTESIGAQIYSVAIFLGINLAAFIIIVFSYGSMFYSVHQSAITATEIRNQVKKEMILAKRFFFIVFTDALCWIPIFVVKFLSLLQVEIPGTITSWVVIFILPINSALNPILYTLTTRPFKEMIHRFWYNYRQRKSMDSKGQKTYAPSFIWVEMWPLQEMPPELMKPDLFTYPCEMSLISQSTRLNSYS
# This is a selection; strong and weak results do not stand in their true shares. Activity calls are given as the source filed them.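 How the source made its calls: active means activity change of -60% or lower, but not beyond a set lower limit; inconclusive means change between -60% and -40%, or beyond the set limit; inactive means change above -40%.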
# Biological target: Relaxin receptor 1 (Homo sapiens) (UniProt Q9HBX9)
# Assay: qHTS Assay for Antagonists of the Relaxin Receptor RXFP1
# Settings: HEK293-RXFP1, relaxin-stimulated cAMP HTRF, 30 min; at 57.5 µM; hits give low values
# Description: The relaxin hormone is involved in the variety of biological functions in normal tissues and diseases. The role of relaxin is well-established in female reproduction and parturition, mammary gland and endometrial development, maintenance of myometrial quiescence during pregnancy. Relaxin signaling through its G protein-coupled receptor (GPCR) RXFP1 results in ECM remodeling through regulation of collagen deposition, cell invasiveness, proliferation and overall tissue homeostasis. […] Recombinant human relaxin (rhRlx) is currently being tested in clinical trials as a protective agent in congestive heart failure, in treating severe preeclampsia, and as an anti-fibrotic agent in various organs. […] Upon relaxin binding RXFP1 activation leads to the activation of adenylate cyclase (AC) via G?s. cAMP will activate PKA, which phosphorylates many signaling proteins. […] RXFP1 activation by relaxin in presence of various concentrations of tested compounds was assayed by changes in cAMP levels as detected with a time-resolved fluorescence energy transfer (TR-FRET) cAMP detection kit.
# For the primary screening, we used HTRF(R) (Homogenous Time-Resolved Fluorescence) cAMP HiRange assay (Cisbio Bioassays, 62AM6PEJ). […] The EC50 values were determined from concentration-response data modeled with the standard Hill equation. […]
# On the % scale 0 is the no-effect control and ±100 the full control effect.
row,Structure (SMILES),"activity change, negative = inhibition"
1,CC1CCC(C(C)C)C(OP(=O)(Nc2ccccn2)c2ccccc2)C1 (stereo unspecified),inactive: -31.1%
